Like-named read-outs stand apart in the source and are kept apart here.
Assays:
[1] = target: T1, hFASN enzyme (full length) (Homo sapiens, UniProt P49327); assay: Fatty Acid Synthase (FASN) inhibition scintillation proximity assay; format: biochemical
T1 construct: 10 μL hFASN enzyme (full length, 300 ng, purified in house); made in house
Description: In this assay, inhibition of FASN activity is measured using ^3H-acetyl-CoA and malonyl-CoA as substrates. ^3H-Acetyl CoA is converted to ^3H-palmitate through a series of reactions by the FASN protein, which contains 7 functional domains and carries out 7 enzymatic reactions to ultimately produce ^3H-palmitate. The assay principle is based upon the fact that ^3H-acetyl-CoA is hydrophilic and the end product, ^3H-palmitate is hydrophobic.
10 μL assay buffer (100 mM KH2PO4 pH 7.5, 1 mM DTT) (20 μL in blanks) was added to a 384-well white optiplate plate (Perkin Elmer). 0.9 μL test compound (at concentrations of 30 μM, 10 μM, 3 μM, 1 μM, 0.30 μM, 0.10 μM, 0.03 μM and 0.01 μM)/DMSO and 10 μL hFASN enzyme (full length, 300 ng, purified in house) or 10 μL assay buffer was added to the wells. […] The reaction was stopped by adding 20 μL Streptavidin coupled imaging beads (25 mg/ml). After incubation for 30 minutes at room temperature in the dark, the 384 well plate was centrifuged at 1500 rpm for 3 minutes and was measured after at least 24 hrs by the LEADseeker™, measuring emission using a 610±20 nm pass filter.
where mLC and mHC were the means of the low control wells and high control wells on the plate, after manual exclusion of outliers. A plot of Controlmin versus test compound concentration was fitted to a 4-parameter logistic curve using a non-linear least squares regression method.

Amino acid sequences for entries named in this document (tags omitted).
UniProt P49327, whole entry: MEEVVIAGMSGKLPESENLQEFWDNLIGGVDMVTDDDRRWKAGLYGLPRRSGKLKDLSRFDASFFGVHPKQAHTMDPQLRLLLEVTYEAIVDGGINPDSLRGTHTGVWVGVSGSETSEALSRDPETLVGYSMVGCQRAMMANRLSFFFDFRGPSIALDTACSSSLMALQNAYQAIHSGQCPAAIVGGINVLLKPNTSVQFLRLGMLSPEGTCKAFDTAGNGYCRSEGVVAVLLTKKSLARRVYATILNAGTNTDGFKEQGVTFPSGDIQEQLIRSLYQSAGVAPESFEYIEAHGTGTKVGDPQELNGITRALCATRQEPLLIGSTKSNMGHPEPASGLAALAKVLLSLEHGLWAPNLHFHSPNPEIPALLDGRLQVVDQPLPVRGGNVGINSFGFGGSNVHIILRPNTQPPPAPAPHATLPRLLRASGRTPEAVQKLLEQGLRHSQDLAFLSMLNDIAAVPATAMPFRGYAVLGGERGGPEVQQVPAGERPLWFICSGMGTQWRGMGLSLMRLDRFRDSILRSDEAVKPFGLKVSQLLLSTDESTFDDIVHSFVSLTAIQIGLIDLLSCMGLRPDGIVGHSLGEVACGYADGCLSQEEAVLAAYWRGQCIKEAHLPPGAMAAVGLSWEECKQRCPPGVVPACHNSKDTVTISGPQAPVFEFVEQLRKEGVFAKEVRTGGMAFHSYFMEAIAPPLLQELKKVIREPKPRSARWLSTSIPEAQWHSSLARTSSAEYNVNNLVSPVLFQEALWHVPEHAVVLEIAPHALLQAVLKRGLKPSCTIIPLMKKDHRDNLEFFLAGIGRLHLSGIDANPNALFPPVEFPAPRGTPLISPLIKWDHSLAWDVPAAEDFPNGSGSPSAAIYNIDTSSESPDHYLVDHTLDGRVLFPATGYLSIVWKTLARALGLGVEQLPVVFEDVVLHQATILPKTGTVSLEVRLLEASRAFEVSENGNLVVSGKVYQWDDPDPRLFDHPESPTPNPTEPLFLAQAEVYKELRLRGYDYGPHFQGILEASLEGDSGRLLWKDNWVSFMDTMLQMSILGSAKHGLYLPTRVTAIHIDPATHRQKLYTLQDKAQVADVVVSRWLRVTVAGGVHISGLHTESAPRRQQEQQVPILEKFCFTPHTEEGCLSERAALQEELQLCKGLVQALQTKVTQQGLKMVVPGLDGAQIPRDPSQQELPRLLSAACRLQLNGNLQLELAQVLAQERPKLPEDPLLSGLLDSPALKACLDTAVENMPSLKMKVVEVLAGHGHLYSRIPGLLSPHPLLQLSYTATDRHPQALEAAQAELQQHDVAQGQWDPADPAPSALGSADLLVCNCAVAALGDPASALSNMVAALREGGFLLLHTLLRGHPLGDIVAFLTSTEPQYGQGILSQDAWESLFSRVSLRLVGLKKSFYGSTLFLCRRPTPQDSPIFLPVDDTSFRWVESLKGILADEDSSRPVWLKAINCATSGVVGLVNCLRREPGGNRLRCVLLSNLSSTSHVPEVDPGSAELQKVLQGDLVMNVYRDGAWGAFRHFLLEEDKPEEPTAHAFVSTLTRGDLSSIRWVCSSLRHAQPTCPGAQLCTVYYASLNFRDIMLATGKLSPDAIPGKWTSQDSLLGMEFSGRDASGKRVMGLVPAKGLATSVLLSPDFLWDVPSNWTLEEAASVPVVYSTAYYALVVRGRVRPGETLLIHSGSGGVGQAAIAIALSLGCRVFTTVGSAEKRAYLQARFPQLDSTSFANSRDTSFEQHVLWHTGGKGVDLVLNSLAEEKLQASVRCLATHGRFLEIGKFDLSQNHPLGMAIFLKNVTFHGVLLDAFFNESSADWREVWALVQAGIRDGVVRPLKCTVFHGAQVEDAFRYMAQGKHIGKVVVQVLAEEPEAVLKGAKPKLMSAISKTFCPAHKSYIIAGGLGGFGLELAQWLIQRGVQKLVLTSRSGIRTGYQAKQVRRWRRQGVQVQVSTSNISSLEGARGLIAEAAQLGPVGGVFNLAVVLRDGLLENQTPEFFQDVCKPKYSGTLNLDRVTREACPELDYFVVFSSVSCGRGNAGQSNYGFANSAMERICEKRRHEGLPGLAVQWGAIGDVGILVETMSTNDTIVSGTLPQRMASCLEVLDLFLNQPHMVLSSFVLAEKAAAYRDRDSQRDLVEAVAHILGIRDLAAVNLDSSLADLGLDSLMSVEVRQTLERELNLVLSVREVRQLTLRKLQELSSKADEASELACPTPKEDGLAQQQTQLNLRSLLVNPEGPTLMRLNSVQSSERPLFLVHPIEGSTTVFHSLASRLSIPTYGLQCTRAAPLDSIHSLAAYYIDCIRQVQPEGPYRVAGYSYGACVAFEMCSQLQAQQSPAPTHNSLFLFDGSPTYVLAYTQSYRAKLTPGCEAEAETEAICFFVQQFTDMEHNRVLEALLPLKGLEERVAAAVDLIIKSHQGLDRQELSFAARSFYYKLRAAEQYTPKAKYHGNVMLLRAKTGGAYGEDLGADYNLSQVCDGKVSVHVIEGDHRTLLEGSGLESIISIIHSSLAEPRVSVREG

[2] = target: Fatty Acid Synthase Keto-reductase Domain (FASN KR) (Homo sapiens, UniProt P49327); assay: Fatty Acid Synthase keto-reductase domain (FASN KR) inhibition, NADPH oxidation at 340 nm
[3] = read-out: Human FASN pIC50 (converted)
[4] = read-out: Human FASN % inhibition @ 10 μM, 10 μM test compound

Compound | IC50 [1, 3] [µM] | IC50 [2] [µM] | inhibition at 10 µM [1, 4] [%] | IC50 [1] [µM] | inhibition at 10 µM ([1]; read-out: Human FASN % inhibition @ 10 μM) [%]
N#Cc1ccc(-c2ccc(C3=NC4(CC4)C(=O)N3CC3CCN(C(=O)C4CC4)CC3)cc2)cc1 [compound 7, 4′-(6-{[1-(Cyclopropylcarbonyl)piperidin-4-yl]methyl}-7-oxo-4,6-diazaspiro[2.4]hept-4-en-5-yl)biphenyl-4-carbonitrile] | > 10 | – | – | – | –
O=C(C1CC1)N1CC[C@@H](CN2C(=O)C3(CC3)N=C2c2ccc(-c3ccc4cnccc4c3)cc2)C1 [compound 47, 6-{[(3R)-1-(Cyclopropylcarbonyl)pyrrolidin-3-yl]methyl}-5-(4-isoquinolin-6-ylphenyl)-4,6-diazaspiro[2.4]hept-4-en-7-one] | – | 0.0275 | 103 | 0.0204 | –
O=C(C1CC1)N1CC[C@@H](CN2C(=O)C3(CC3)N=C2c2ccc(-c3ccc4occc4c3)cc2)C1 [compound 58, (R)-5-(4-(Benzofuran-5-yl)phenyl)-6-((1-(cyclopropanecarbonyl)pyrrolidin-3-yl)methyl)-4,6-diazaspiro[2.4]hept-4-en-7-one] | 0.0251 | 0.0525 | – | – | 108
CC(=O)N1CCC2(CC1)N=C(c1ccc(-c3ccc4c(cnn4C)c3)cc1)N(C[C@@H]1CCN(C(=O)C3CC3)C1)C2=O [compound 138, 8-Acetyl-3-{[(3R)-1-(cyclopropylcarbonyl)pyrrolidin-3-yl]methyl}-2-[4-(1-methyl-1H-indazol-5-yl)phenyl]-1,3,8-triazaspiro[4.5]dec-1-en-4-one] | 0.389 | – | 102 | – | –
Cc1cc(-c2ccc3c(cnn3C)c2)ccc1C1=NC2(CC2)C(=O)N1C[C@@H]1CCN(C(=O)C2CC2)C1 [compound 262, (R)-6-((1-(cyclopropanecarbonyl)pyrrolidin-3-yl)methyl)-5-(2-methyl-4-(1-methyl-1H-indazol-5-yl)phenyl)-4,6-diazaspiro[2.4]hept-4-en-7-one] | – | 0.0724 | 94 | ~0.0513 | –
O=C(C1CC1)N1CC[C@@H](CN2C(=O)C3(CC3)N=C2c2ccc(-c3ccc4[nH]ncc4c3)cc2)C1 [compound 297, (R)-5-(4-(1H-indazol-5-yl)phenyl)-6-((1-(cyclopropanecarbonyl)pyrrolidin-3-yl)methyl)-4,6-diazaspiro[2.4]hept-4-en-7-one] | – | 0.0617 | 111 | 0.0316 | –
O=C(C1CC1)N1CC(CN2C(=O)C3(CC3)N=C2c2ccc(-c3ccc4ccccc4n3)cc2)C1 [compound 345, 6-((1-(cyclopropanecarbonyl)azetidin-3-yl)methyl)-5-(4-(quinolin-2-yl)phenyl)-4,6-diazaspiro[2.4]hept-4-en-7-one] | 0.0891 | 0.229 | – | – | –
Cn1ncc2cc(-c3ccc(C4=NC5(CC5)C(=O)N4C[C@@H]4CCCN(C(=O)C5CC5)C4)cc3)ccc21 [compound 396, 6-{[(3R)-1-(Cyclopropylcarbonyl)piperidin-3-yl]methyl}-5-[4-(1-methyl-1H-indazol-5-yl)phenyl]-4,6-diazaspiro[2.4]hept-4-en-7-one] | – | – | 52 | ~8.51 | –
Cn1ncc2cc(-c3ccc(C4=NC5(CC5)C(=O)N4C[C@@H]4CCN(C(=O)C5CC5)C4)cc3F)ccc21 [compound 405, 6-{[(3R)-1-(Cyclopropylcarbonyl)pyrrolidin-3-yl]methyl}-5-[3-fluoro-4-(1-methyl-1H-indazol-5-yl)phenyl]-4,6-diazaspiro[2.4]hept-4-en-7-one] | – | – | 102 | – | –
Cc1cc(C2=NC3(CC3)C(=O)N2C[C@@H]2CCN(C(=O)C3CC3)C2)ccc1-c1ccc2c(cnn2C)c1 [compound 450, 6-{[(3R)-1-(Cyclopropylcarbonyl)pyrrolidin-3-yl]methyl}-5-[3-methyl-4-(1-methyl-1H-indazol-5-yl)phenyl]-4,6-diazaspiro[2.4]hept-4-en-7-one] | – | 0.646 | 98 | 0.295 | –
O=C(C1CC1)N1CC[C@@H](CN2C(=O)C3(CC3)N=C2c2ccc(-c3ccc4ncccc4c3)cc2)C1 [compound 455, 6-{[(3R)-1-(Cyclopropylcarbonyl)pyrrolidin-3-yl]methyl}-5-(4-quinolin-6-ylphenyl)-4,6-diazaspiro[2.4]hept-4-en-7-one] | – | 0.355 | 99 | 0.162 | –
O=C(C1CC1)N1CC[C@@H](CN2C(=O)C3(CC3)N=C2c2ccc(-c3cnc4ccccc4c3)cc2)C1 [compound 474, 6-{[(3R)-1-(Cyclopropylcarbonyl)pyrrolidin-3-yl]methyl}-5-(4-quinolin-3-ylphenyl)-4,6-diazaspiro[2.4]hept-4-en-7-one] | – | 0.182 | 99 | 0.123 | –
Cn1ncc2cc(-c3ccc(C4=NC5(CC5)C(=O)N4C[C@@H]4CCN(C(=O)C5CC5)C4)c(F)c3)ccc21 [compound 871, (R)-6-((1-(cyclopropanecarbonyl)pyrrolidin-3-yl)methyl)-5-(2-fluoro-4-(1-methyl-1H-indazol-5-yl)phenyl)-4,6-diazaspiro[2.4]hept-4-en-7-one] | – | – | – | 0.0224 | –

Second part, led by results:

IC50 [1, 3] [µM] | Compound | IC50 [2] [µM] | inhibition at 10 µM [1, 4] [%] | IC50 [1] [µM] | inhibition at 10 µM ([1]; read-out: Human FASN % inhibition @ 10 μM) [%]
0.0646 | Cn1ncc2cc(-c3ccc(C4=NC5(CC5)C(=O)N4CC4CN(C(=O)C5CC5)C4)cc3)ccc21 [compound 39, 6-{[1-(Cyclopropylcarbonyl)azetidin-3-yl]methyl}-5-[4-(1-methyl-1H-indazol-5-yl)phenyl]-4,6-diazaspiro[2.4]hept-4-en-7-one] | 0.214 | 103 | – | –
0.0589 | O=C(C1CC1)N1CC(CN2C(=O)C3(CCCC3)N=C2c2ccc(-c3ccc4[nH]ccc4c3)cc2)C1 [compound 78, 3-{[1-(Cyclopropylcarbonyl)azetidin-3-yl]methyl}-2-[4-(1H-indol-5-yl)phenyl]-1,3-diazaspiro[4.4]non-1-en-4-one] | 0.224 | – | – | –
0.0589 | Cc1cc(C2=NC3(CC3)C(=O)N2C[C@@H]2CCN(C(=O)C3CC3)C2)ccc1-c1ccc2cc[nH]c2c1 [compound 239, (R)-5-(4-(1H-indol-6-yl)-3-methylphenyl)-6-((1-(cyclopropanecarbonyl)pyrrolidin-3-yl)methyl)-4,6-diazaspiro[2.4]hept-4-en-7-one] | 0.129 | – | – | –
0.174 | O=C(C1CC1)N1CC[C@H](CN2C(=O)C3(CC3)N=C2c2ccc(-c3ccc4occc4c3)cc2)C1 [compound 409, 5-[4-(1-Benzofuran-5-yl)phenyl]-6-{[(3S)-1-(cyclopropylcarbonyl)pyrrolidin-3-yl]methyl}-4,6-diazaspiro[2.4]hept-4-en-7-one] | 0.347 | 100 | – | –
0.316 | O=C(C1CC1)N1CC[C@H](CN2C(=O)C3(CC3)N=C2c2ccc(-c3ccc4[nH]ncc4c3)cc2)C1 [compound 431, 6-{[(3S)-1-(Cyclopropylcarbonyl)pyrrolidin-3-yl]methyl}-5-[4-(1H-indazol-5-yl)phenyl]-4,6-diazaspiro[2.4]hept-4-en-7-one] | 0.468 | 97 | – | –
> 10 | Cn1ncc2cc(-c3ccc(C4=NC5(CC5)C(=O)N4C[C@H]4CCCN(C(=O)C5CC5)C4)cc3)ccc21 [compound 819, (S)-6-((1-(cyclopropanecarbonyl)piperidin-3-yl)methyl)-5-(4-(1-methyl-1H-indazol-5-yl)phenyl)-4,6-diazaspiro[2.4]hept-4-en-7-one] | – | – | – | –
0.0245 | Cc1cc(-c2ccc3cc[nH]c3c2)ccc1C1=NC2(CCCC2)C(=O)N1C[C@@H]1CCN(C(=O)C2CC2)C1 [compound 873, (R)-2-(4-(1H-indol-6-yl)-2-methylphenyl)-3-((1-(cyclopropanecarbonyl)pyrrolidin-3-yl)methyl)-1,3-diazaspiro[4.4]non-1-en-4-one] | 0.0407 | – | – | –

From patent US10077261B2, “Imidazolin-5-one derivative useful as FASN inhibitors for the treatment of cancer” (Janssen Pharmaceutica NV, priority 2012, dated 2018)
